Target: human serotonin 2C receptor (h-5-HT2C) (Homo sapiens (Human), UniProt P28335)
Assay: 5-HT2C receptor agonistic action assay (FLIPR Calcium 4, h-5-HT2C/CHO cells; agonistic / inverse agonistic action)
Type: cell-based
Conditions: Test Ex. 3; test material 10 μmol/L; 100% = 10 μmol/L 5-HT, −100% = 10 μmol/L SB206553; below 0% = inverse agonistic action
Procedure: 3-1. The Cells and Inoculation Thereof
In the experiment, human serotonin 2C receptor (h-5-HT2C) was expressed in CHO cells (h-5-HT2C/CHO). The cells were incubated with UltraCHO Lipuid (trademark) (manufactured by BioWhitakker) containing 1% FBS, 400 μg/mL Geneticin, 100 U/mL penicillin-100 μg/mL streptomycin (all manufactured by Sigma Aldrich) and 250 μg/mL Zeosin (manufactured by InvivoGen) in an incubator containing 5% CO2. […]
The 5-HT2C receptor agonistic action was evaluated with FLIPR Calcium 4 Assay kit (manufactured by Molecular Devices). […] Then, the cells were set in FLIPR TETRA (trademark) (manufactured by Molecular Devices), to the cells was added the test material diluted with HHBP buffer, 2.5 mmol/L Probenecid (manufactured by Sigma) (concentration after dilution: 10 μmol/L) at an amount of 20 μL/well, and the fluorescence was measured. Then, in order to evaluate the antagonistic action of the test material, 20 μL/well of 5-HT solution (manufactured by Sigma, final concentration: 0.1 nmol/L) was further added to the cells, and the fluorescence was measured.
The 5-HT2C receptor agonistic action of each test material was calculated as a rate of fluorescence enhancement wherein 100% was defined as a value when the cells were given 10 μmol/L 5-HT. […]

The chains behind the UniProt entries cited, without tags or fusion partners. Where a name states a change or a piece, a line headed by the entry shows the natural chain unless it says otherwise.
UniProt P28335: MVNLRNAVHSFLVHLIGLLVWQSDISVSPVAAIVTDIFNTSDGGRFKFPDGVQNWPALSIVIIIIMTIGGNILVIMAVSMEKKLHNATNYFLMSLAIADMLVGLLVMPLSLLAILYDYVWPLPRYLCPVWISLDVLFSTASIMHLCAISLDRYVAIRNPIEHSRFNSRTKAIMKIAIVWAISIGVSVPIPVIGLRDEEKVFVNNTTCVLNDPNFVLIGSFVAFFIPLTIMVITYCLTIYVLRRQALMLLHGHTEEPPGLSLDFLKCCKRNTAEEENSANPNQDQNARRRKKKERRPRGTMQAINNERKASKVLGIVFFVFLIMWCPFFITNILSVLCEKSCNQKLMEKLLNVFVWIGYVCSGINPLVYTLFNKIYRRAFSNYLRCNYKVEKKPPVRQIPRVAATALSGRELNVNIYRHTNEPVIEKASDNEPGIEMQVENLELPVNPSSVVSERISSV

**Q.** How did the “5-HT2C receptor agonistic action” value turn out when CNCc1cc(OCc2ccccc2)n(CC2CC3CCC2C3)n1 (centres unmarked) [Example 115] was run?
**A.** Its value is −103%.

**Q.** Which “5-HT2C receptor agonistic action” value does the source give for CCCCn1nc(CNC)cc1OCc1cc(F)ccc1F [Example 242] here?
**A.** The value was −95%.

From US11312688B2, “Pyrazole compound” (Sumitomo Dainippon Pharma Co., Ltd., priority 2011, dated 2022)
